The values that follow come from patent US10092537B2, “Use for PAI-1 inhibitor” (RENASCIENCE CO., LTD., priority 2013, dated 2018).

The test system of this assay is Her2-A20 cell. Kind of assay: Her2-A20 cell subcutaneous tumor, Herceptin and compound c (Experimental Example 19). As to conditions: Herceptin alone; results of Experimental Examples 18 to 20. Format: in vivo, BALB/c-nude mice. As for the experimental part:
At first, A20 cell line (mouse B lymphoma) was transfected with human Her2 cDNA using MIGR1 vector to prepare transformed cells (hereinafter, “Her2-A20 cell”). The Her2-A20 cells (5×10^6) were subcutaneously inoculated into BALB/c-nude mice. When the tumor size became 30 mm^3 or more (day 0), Herceptin, a human anti-HER2 antibody, (20 mg/kg/day) was intraperitoneally administered once, and oral administration of compound c (10 mg/kg/day) or physiological saline was started at the same time. Compound c or physiological saline was administered once a day, 5 doses in total (day 0 to day 4). In the following week, Herceptin (20 mg/kg/day) was intraperitoneally administered once, and oral administration of compound c or physiological saline was started at the same time. Compound c or physiological saline was administered once a day, 7 doses in total (day 7 to day 13). The group to which Herceptin and compound c were administered in combination is referred to as “compound c-combined group,” and the group to which Herceptin and physiological saline were administered in combination is referred to as “compound c-non-combined group.” The group to which physiological saline alone was administered without Herceptin is referred to as “placebo group.” The number n is 3 for the compound c-combined group, 4 for the compound c-non-combined group, and 3 for the placebo group.

Regarding “Herceptin: Herceptin, a human anti-HER2 antibody [reference compound]”, the “therapeutic effect on a tumor” value is “does not produce a therapeutic effect”.
